Experimental data: the kinase profiling compilation of Christmann-Franck et al. (2016)

By UniProt entry, the sequences of proteins in these tests, tags left out. Where a name states a change or a piece, a line headed by the entry shows the natural chain unless it says otherwise.
UniProt Q8IU85: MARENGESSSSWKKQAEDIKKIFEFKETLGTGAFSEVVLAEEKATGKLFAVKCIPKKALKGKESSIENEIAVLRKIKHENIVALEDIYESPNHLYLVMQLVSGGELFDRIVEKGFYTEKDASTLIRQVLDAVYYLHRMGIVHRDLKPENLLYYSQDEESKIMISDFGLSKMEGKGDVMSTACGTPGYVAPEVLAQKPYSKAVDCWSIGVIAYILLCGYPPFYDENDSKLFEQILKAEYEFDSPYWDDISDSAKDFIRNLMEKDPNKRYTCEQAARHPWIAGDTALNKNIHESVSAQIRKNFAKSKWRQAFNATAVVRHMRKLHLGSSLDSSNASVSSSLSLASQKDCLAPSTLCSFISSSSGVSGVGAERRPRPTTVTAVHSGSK
UniProt O43781: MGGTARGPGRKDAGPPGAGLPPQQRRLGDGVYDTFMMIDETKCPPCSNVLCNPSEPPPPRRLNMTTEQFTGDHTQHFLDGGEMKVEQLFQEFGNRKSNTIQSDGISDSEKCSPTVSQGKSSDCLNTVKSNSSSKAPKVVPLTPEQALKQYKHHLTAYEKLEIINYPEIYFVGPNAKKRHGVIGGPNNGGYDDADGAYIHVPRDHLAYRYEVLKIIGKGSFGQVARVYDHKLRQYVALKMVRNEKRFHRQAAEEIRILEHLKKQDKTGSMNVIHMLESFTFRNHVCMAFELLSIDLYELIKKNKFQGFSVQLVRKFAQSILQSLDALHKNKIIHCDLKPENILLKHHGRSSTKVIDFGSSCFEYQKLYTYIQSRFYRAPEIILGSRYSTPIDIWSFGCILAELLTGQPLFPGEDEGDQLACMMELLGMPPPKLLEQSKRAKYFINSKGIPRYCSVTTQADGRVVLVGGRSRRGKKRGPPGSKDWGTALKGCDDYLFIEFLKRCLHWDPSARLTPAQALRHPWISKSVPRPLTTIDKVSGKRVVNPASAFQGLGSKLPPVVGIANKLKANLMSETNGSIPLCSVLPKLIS
UniProt Q9UIK4: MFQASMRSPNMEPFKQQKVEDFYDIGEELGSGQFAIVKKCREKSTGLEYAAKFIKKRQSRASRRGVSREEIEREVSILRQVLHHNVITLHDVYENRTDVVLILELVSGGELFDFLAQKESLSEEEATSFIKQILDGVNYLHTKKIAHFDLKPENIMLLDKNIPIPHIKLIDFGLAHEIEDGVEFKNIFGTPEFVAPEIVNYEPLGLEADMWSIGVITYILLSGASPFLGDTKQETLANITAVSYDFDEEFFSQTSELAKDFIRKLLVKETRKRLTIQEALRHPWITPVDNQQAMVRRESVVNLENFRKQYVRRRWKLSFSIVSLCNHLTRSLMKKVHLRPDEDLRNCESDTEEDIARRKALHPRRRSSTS
UniProt Q9UQB9: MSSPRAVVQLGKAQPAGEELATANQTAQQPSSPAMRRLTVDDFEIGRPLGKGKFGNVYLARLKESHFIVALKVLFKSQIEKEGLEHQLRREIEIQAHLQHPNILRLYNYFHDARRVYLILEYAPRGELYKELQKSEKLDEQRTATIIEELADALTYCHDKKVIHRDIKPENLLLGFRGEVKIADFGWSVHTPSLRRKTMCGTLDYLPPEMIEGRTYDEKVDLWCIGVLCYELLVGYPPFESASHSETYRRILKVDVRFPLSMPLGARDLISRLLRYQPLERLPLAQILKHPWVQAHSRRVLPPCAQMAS
UniProt P51812, whole entry, looked up: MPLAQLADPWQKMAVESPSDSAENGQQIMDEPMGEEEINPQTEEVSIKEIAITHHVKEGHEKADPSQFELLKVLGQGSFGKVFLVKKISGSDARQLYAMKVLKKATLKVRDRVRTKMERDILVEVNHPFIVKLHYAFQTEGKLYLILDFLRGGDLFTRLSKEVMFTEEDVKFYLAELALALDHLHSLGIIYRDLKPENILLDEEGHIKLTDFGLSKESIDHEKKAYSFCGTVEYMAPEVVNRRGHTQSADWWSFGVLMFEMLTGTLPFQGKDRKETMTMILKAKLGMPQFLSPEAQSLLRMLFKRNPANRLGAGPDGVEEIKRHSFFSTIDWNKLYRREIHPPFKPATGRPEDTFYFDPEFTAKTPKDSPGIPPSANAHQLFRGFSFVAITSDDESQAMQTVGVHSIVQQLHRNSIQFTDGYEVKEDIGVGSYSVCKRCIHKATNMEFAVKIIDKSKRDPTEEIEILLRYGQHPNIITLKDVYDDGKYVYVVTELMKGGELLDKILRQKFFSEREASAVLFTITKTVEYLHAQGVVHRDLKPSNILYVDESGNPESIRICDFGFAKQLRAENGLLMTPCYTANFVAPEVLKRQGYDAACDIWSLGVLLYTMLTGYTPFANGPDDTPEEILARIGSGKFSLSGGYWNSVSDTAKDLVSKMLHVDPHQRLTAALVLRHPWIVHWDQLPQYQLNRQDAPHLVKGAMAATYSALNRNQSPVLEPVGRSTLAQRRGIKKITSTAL
UniProt P21802, whole entry, looked up: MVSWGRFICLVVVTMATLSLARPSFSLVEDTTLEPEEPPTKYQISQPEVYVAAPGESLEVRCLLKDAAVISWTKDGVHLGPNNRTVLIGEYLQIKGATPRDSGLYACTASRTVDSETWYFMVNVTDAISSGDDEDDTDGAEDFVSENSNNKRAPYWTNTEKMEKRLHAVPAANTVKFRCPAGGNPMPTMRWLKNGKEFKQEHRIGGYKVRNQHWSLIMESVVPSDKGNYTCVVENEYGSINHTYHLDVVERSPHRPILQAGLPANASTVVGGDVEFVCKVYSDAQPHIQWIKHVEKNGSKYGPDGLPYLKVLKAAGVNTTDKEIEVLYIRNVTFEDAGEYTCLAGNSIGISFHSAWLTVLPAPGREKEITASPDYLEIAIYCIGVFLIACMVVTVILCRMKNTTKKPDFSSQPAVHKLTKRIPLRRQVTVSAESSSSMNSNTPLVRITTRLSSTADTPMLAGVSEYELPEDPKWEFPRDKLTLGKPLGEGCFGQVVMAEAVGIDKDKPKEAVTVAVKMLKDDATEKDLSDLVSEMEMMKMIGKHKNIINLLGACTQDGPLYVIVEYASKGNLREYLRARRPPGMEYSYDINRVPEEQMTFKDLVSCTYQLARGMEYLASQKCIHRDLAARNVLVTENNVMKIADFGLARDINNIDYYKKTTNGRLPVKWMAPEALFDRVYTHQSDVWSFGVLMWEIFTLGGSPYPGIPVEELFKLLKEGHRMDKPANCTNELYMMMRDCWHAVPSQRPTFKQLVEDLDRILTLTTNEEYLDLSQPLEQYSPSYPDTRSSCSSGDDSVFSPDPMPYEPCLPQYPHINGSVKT
UniProt P42681: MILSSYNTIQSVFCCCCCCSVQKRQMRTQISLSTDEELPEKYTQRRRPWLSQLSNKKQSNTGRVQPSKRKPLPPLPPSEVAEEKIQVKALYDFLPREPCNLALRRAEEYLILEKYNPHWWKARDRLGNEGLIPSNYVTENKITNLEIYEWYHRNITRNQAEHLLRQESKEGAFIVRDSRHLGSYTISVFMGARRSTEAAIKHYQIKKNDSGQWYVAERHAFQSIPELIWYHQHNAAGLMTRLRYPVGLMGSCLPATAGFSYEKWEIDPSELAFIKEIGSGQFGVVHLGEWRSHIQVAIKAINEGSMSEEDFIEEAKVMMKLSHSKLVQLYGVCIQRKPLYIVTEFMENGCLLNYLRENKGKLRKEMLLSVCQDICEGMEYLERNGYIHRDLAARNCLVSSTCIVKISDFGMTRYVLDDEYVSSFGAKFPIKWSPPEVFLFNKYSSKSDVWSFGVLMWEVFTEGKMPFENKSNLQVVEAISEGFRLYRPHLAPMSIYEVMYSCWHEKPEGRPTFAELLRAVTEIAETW
UniProt O15264: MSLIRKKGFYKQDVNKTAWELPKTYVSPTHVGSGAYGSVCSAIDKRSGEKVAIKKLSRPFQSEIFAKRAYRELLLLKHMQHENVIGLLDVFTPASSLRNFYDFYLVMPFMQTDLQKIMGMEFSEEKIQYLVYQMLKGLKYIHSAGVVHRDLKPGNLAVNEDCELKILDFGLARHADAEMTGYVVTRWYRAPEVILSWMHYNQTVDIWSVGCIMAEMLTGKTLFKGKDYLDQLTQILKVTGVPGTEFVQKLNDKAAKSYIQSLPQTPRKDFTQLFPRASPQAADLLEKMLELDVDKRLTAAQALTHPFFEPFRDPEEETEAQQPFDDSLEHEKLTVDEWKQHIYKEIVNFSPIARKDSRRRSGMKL
UniProt Q9H2X6: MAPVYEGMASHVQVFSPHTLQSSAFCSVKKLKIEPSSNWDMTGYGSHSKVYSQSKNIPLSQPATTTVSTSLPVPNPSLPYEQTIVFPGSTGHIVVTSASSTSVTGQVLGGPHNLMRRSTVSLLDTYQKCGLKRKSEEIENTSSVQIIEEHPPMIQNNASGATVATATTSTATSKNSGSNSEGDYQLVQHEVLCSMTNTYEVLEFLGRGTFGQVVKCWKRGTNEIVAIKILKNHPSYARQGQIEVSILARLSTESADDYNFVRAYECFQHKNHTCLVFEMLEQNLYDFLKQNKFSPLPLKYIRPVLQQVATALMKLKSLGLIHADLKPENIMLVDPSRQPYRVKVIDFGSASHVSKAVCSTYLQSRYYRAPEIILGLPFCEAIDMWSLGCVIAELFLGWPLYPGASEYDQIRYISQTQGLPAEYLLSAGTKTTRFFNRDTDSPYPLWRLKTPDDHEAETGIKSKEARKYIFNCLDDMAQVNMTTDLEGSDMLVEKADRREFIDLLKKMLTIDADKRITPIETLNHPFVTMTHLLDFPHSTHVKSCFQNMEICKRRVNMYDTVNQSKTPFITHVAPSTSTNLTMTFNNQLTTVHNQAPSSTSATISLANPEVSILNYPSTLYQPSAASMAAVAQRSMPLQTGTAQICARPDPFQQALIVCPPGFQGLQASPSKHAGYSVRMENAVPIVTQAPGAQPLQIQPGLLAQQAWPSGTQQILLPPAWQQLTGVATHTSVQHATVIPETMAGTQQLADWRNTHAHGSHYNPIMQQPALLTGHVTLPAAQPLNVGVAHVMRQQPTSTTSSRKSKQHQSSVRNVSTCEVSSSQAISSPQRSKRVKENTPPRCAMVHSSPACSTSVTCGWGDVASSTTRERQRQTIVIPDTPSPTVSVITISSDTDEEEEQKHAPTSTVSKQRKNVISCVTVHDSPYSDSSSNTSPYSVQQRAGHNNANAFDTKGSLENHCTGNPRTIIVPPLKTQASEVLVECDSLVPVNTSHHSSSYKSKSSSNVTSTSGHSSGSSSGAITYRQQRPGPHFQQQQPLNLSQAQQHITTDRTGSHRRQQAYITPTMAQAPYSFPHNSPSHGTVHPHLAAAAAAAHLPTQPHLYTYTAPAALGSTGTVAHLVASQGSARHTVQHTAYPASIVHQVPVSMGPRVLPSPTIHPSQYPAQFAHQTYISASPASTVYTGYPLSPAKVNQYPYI
UniProt Q9H4B4: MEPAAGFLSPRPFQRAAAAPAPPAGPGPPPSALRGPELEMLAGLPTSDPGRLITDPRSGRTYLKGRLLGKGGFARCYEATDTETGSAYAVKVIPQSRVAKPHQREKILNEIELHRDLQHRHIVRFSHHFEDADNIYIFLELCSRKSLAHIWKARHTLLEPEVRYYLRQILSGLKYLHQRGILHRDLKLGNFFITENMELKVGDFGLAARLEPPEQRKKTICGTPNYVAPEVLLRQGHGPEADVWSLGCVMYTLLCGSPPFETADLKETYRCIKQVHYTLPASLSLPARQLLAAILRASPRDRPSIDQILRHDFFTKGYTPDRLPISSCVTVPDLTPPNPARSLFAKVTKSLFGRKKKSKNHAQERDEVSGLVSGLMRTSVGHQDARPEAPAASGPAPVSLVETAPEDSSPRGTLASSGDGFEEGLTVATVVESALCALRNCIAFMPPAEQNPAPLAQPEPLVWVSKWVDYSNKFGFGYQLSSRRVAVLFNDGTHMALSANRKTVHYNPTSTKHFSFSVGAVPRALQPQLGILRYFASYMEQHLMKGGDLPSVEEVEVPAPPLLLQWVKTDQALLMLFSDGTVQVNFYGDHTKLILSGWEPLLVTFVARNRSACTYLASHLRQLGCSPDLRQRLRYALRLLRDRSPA
UniProt Q92630: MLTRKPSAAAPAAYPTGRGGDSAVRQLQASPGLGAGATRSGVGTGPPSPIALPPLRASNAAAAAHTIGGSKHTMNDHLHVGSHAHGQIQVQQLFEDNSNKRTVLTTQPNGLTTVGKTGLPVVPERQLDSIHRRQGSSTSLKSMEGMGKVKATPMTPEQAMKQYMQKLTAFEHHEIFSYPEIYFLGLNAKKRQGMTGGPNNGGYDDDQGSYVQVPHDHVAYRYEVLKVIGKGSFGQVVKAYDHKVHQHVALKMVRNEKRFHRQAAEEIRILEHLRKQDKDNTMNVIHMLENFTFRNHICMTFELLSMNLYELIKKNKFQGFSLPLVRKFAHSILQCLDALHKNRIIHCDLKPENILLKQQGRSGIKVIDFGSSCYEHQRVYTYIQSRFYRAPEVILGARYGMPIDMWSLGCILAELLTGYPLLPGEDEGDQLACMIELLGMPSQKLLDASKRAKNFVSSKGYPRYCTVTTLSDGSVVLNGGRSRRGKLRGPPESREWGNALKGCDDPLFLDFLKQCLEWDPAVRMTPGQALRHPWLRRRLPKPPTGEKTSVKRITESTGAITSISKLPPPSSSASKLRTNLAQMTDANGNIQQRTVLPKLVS

Key:
Test in all cases: radiometric filter-binding kinase assay, Kinase HotSpot
Details in all cases: compound 0.5 µM; ATP 10 µM
[1] = molecular target: EPHA1 (human) (UniProt P21709)
[2] = molecular target: PTK6 (human) (UniProt Q13882)
[3] = molecular target: CHEK2 (human) (UniProt O96017)
[4] = molecular target: PRKX (human) (UniProt P51817)
[5] = molecular target: CAMK1D (human) (UniProt Q8IU85)
[6] = molecular target: MAPK14 (human) (UniProt Q16539)
[7] = molecular target: MYLK (human) (UniProt Q15746)
[8] = molecular target: CSNK2A1 (human) (UniProt P68400)
[9] = molecular target: PRKG2 (human) (UniProt Q13237)
[10] = molecular target: LIMK1 (human) (UniProt P53667)
[11] = molecular target: FRK (human) (UniProt P42685)
[12] = molecular target: GRK7 (human) (UniProt Q8WTQ7)
[13] = molecular target: MAP3K2 (human) (UniProt Q9Y2U5)
[14] = molecular target: DYRK3 (human) (UniProt O43781)
[15] = molecular target: SRPK1 (human) (UniProt Q96SB4)
[16] = molecular target: DAPK2 (human) (UniProt Q9UIK4)
[17] = molecular target: AURKC (human) (UniProt Q9UQB9)
[18] = molecular target: FLT3 (human) (UniProt P36888)
[19] = molecular target: RPS6KA3 KD1 KD2 (human) (UniProt P51812)
[20] = molecular target: FGFR2 (human) (UniProt P21802)
[21] = molecular target: TXK (human) (UniProt P42681)
[22] = molecular target: STK25 (human) (UniProt O00506)
[23] = molecular target: CLK2 (human) (UniProt P49760)
[24] = molecular target: PRKCZ (human) (UniProt Q05513)
[25] = molecular target: CSNK2A2 (human) (UniProt P19784)
[26] = molecular target: MAPK13 (human) (UniProt O15264)
[27] = molecular target: MAP3K9 (human) (UniProt P80192)
[28] = molecular target: HIPK2 (human) (UniProt Q9H2X6)
[29] = molecular target: CSNK1E (human) (UniProt P49674)
[30] = molecular target: PLK3 (human) (UniProt Q9H4B4)
[31] = molecular target: MAPKAPK5 (human) (UniProt Q8IW41)
[32] = molecular target: FGFR4 (human) (UniProt P22455)
[33] = molecular target: PRKCE (human) (UniProt Q02156)
[34] = molecular target: STK3 (human) (UniProt Q13188)
[35] = molecular target: PTK2B (human) (UniProt Q14289)
[36] = molecular target: TAOK2 (human) (UniProt Q9UL54)
[37] = molecular target: CAMKK1 (human) (UniProt Q8N5S9)
[38] = molecular target: MAP4K2 (human) (UniProt Q12851)
[39] = molecular target: DYRK2 (human) (UniProt Q92630)
[40] = molecular target: BLK (human) (UniProt P51451)
[41] = molecular target: PRKCA (human) (UniProt P17252)
[42] = molecular target: CAMK2A (human) (UniProt Q9UQM7)

COc1cc(OC)c(/C=C2\C(=O)Nc3ccccc32)c(OC)c1
residual activity [1]: 88.8% | residual activity [2]: 98.8% | residual activity [3]: 98.1% | residual activity [4]: 103% | residual activity [5]: 94.5% | residual activity [6]: 98% | residual activity [7]: 97.3% | residual activity [8]: 101% | residual activity [9]: 108% | residual activity [10]: 83.8% | residual activity [11]: 94.8% | residual activity [12]: 99.2% | residual activity [13]: 94% | residual activity [14]: 109% | residual activity [15]: 102% | residual activity [16]: 97.4% | residual activity [17]: 98.5% | residual activity [18]: 95.7% | residual activity [19]: 90.4% | residual activity [20]: 109% | residual activity [21]: 99.2% | residual activity [22]: 87.5% | residual activity [23]: 96.2% | residual activity [24]: 91.7% | residual activity [25]: 99% | residual activity [26]: 99.1% | residual activity [27]: 101% | residual activity [28]: 102% | residual activity [29]: 48.3% | residual activity [30]: 97.7% | residual activity [31]: 104% | residual activity [32]: 106% | residual activity [33]: 95.5% | residual activity [34]: 115% | residual activity [35]: 100% | residual activity [36]: 100% | residual activity [37]: 122% | residual activity [38]: 109% | residual activity [39]: 98% | residual activity [40]: 106% | residual activity [41]: 91.1% | residual activity [42]: 97%

O=C1c2ccccc2-[n+]2ccc3c([nH]c4ccccc43)c21
residual activity [1]: 79.5% | residual activity [2]: 104% | residual activity [3]: 91.8% | residual activity [4]: 101% | residual activity [5]: 83.4% | residual activity [6]: 90.2% | residual activity [7]: 87.6% | residual activity [8]: 91.7% | residual activity [9]: 122% | residual activity [10]: 85.6% | residual activity [11]: 99.1% | residual activity [12]: 94.4% | residual activity [13]: 105% | residual activity [14]: 99% | residual activity [15]: 80.6% | residual activity [16]: 96.7% | residual activity [17]: 93.8% | residual activity [18]: 88.6% | residual activity [19]: 98.7% | residual activity [20]: 100% | residual activity [21]: 99.7% | residual activity [22]: 103% | residual activity [23]: 99.5% | residual activity [24]: 93.7% | residual activity [25]: 92.6% | residual activity [26]: 107% | residual activity [27]: 94.3% | residual activity [28]: 97.9% | residual activity [29]: 91.1% | residual activity [30]: 73% | residual activity [31]: 90% | residual activity [32]: 90.7% | residual activity [33]: 93.7% | residual activity [34]: 96.7% | residual activity [35]: 92.7% | residual activity [36]: 99.4% | residual activity [37]: 133% | residual activity [38]: 118% | residual activity [39]: 107% | residual activity [40]: 99.2% | residual activity [41]: 74.2% | residual activity [42]: 114%
